For orientation: Cmax means the peak of the concentration-time curve. The term EC50 denotes the concentration giving half of the maximal effect. High values mean a need for much substance, low ones an effect from little substance.

Sequences of proteins named here, by UniProt entry; tags and fusion partners are left off. Residues count along the entry.
UniProt P43220, 24-463 limits assumed: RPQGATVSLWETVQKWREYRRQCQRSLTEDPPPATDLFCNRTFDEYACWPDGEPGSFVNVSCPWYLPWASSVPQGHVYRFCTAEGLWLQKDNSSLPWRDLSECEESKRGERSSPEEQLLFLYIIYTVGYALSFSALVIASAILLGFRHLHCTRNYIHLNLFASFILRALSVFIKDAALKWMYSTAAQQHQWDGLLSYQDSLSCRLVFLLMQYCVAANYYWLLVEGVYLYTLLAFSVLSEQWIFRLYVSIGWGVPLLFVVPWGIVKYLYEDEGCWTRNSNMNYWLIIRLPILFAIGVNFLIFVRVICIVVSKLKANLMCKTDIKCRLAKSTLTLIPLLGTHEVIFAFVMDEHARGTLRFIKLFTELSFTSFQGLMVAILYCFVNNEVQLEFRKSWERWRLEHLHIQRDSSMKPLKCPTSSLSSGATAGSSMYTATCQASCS

The values that follow come from patent publication EP4847509A1, “GLP-1 RECEPTOR AGONIST, AND PREPARATION METHOD THEREFOR AND USE THEREOF” (dated 2026).

Data set [1] can be described thus: Kinetic solubility in FaSSIF. To be noted: FaSSIF pH 6.5, 25°C, 2 h, 100 µM final concentration, 0.5% DMSO.
Data set [2] is described as follows: Pharmacokinetic study in rats. The following applies: SD rat, po, 5 mg/kg.
Data set [3] in a line: Pharmacokinetic study in Cynomolgus monkeys. To be noted: po, 5 mg/kg.
A short description of data set [4]: Stability in liver microsome. The following applies: human liver microsome 0.5 mg/mL, 1 µM test substance, NADPH, 37°C.
The target in data set [5] is GLP-1 receptors (Homo sapiens, UniProt P43220). The data set can be described thus: cAMP agonism test in HEK293 cells with high expression of hGLP-1R (titled in vitro cell viability test). The following applies: cAMP detection.
Data set [6] is described as follows: Pharmacokinetic study in mice. To be noted: C57BL/6 mice, po, 10 mg/kg.

Regarding `Cc1cc(-n2nc3c(c2-n2ccn(-c4ccc5c(cnn5C)c4F)c2=O)[C@H](C)N(C(=O)c2cc4cc([C@H]5CCOC(C)(C)C5)ccc4n2[C@@]2(c4noc(=O)[nH]4)C[C@@H]2C)CC3)cc(C)c1F`, the “FaSSIF pH 6.5” value in data set [1] worked out at 0.36 µM.
For the compound `Cc1cc(-n2nc3c(c2-n2ccn(-c4ccc5c(cnn5C5CC5)c4F)c2=O)[C@H](C)N(C(=O)c2cc4cc([C@H]5CCOC(C)(C)C5)ccc4n2C2(c4noc(=O)[nH]4)CC2)CC32CC2)cc(C)c1F`, in data set [2], the AUC0-24 h was 20358 ng·h/mL, the Cmax was determined as 2083 ng/mL and the T1/2 amounted to 4.44 h. In data set [3], this compound displayed an AUC0-24 h of 4599 ng·h/mL, a Cmax of 298 ng/mL and a T1/2 of 6.33 h. Besides, the “Human T1/2” value in data set [4] is reported as above 184 min. The compound further gave an EC50 in data set [5] of 1.27 nM. Besides, the “FaSSIF pH 6.5” value in data set [1] came to 63.34 µM. In data set [6], this compound had an AUC0-24 h of 124.788 µg·h/mL, a Cmax of 6877 ng/mL and a T1/2 of 20.3 h.
In data set [2], `Cc1cc(-n2nc3c(c2-n2ccn(-c4ccc5c(cnn5C5CC5)c4F)c2=O)[C@H](C)N(C(=O)c2cc4cc([C@H]5CCOC(C)(C)C5)ccc4n2C2(c4noc(=O)[nH]4)CC2)CC3(C)C)cc(C)c1F` returned an AUC0-24 h of 19113 ng·h/mL, a Cmax of 2320 ng/mL and a T1/2 of 2.86 h. In data set [3], the AUC0-24 h stood at 4826 ng·h/mL, the Cmax is given as 376 ng/mL and the T1/2 came out at 9.2 h. The “Human T1/2” value in data set [4] is above 184 min. This compound also gave an EC50 in data set [5] of 0.95 nM. Further, the “FaSSIF pH 6.5” value in data set [1] worked out at 54.20 µM. In data set [6], the AUC0-24 h amounted to 131.001 µg·h/mL, the Cmax is 8757 ng/mL and the T1/2 was 8.71 h.
In data set [5], `Cc1cc(-n2nc3c(c2-n2ccn(-c4ccc5c(cnn5C)c4F)c2=O)[C@H](C)N(C(=O)c2cc4cc([C@H]5CCOC(C)(C)C5)ccn4c2C2(c4noc(=O)[nH]4)CC2)CC3(C)C)cc(C)c1F` gave an EC50 of 1.03 nM.
Turning to `Cc1cc(-n2nc3c(c2-n2ccn(-c4ccc5c(cnn5C)c4F)c2=O)[C@H](C)N(C(=O)c2cc4cc([C@H]5CCOC(C)(C)C5)ccc4n2[C@@]2(c4noc(=O)[nH]4)C[C@@H]2C)CC32CC2)cc(C)c1F`, the AUC0-24 h was 21158 ng·h/mL in data set [2], 5291 ng·h/mL in data set [3] and 66.26 µg·h/mL in data set [6]. In addition, the results for the Cmax in data set [2], in data set [3] and in data set [6] were 2020 ng/mL, 406 ng/mL and 4583 ng/mL, respectively. For the same compound, the values for the T1/2 in data set [2], in data set [3] and in data set [6] were 10.9 h, 10.6 h and 27.3 h, respectively. Besides, the “FaSSIF pH 6.5” value in data set [1] is given as 85.92 µM.
Turning to “3-((1S,2S)-1-(5-((S)-2,2-dimethyltetrahydro-2H-pyran-4-yl)-2-((S)-3-(3-(4-fluoro-1-methyl-1H-indazol-5-yl)-2-oxo-2,3-dihydro-1H-imidazol-1-yl)-2-(4-fluoro-3,5-dimethylphenyl)-4,7,7-trimethyl-4,5,6,7-tetrahydro-2H-pyrazole[4,3-c]pyridine-5-carbonyl)-1H-indol-1-yl)-2-methylcyclopropyl)-1,2,4-oxadiazol-5(4H)-one”, the EC50 in data set [5] turned out to be 1.02 nM.
Regarding `Cc1cc(-n2nc3c(c2-n2ccn(-c4ccc5c(cnn5C)c4F)c2=O)[C@H](C)N(C(=O)c2cc4cc(C5CCOCC5)ccc4n2[C@@]2(c4noc(=O)[nH]4)C[C@@H]2C)CC32CC2)cc(C)c1F`, in data set [2], the AUC0-24 h was 19867 ng·h/mL, the Cmax came out at 1553 ng/mL and the T1/2 was 10.8 h. In data set [6], this compound returned an AUC0-24 h of 137.222 µg·h/mL, a Cmax of 9050 ng/mL and a T1/2 of 10 h.
Regarding `[2H]C([2H])([2H])n1ncc2c(F)c(-n3ccn(-c4c5c(nn4-c4cc(C)c(F)c(C)c4)C4(CC4)CN(C(=O)c4cc6cc([C@H]7CCOC(C)(C)C7)ccc6n4[C@@]4(c6noc(=O)[nH]6)C[C@@H]4C)[C@H]5C)c3=O)ccc21`, the “Human T1/2” value in data set [4] is listed as above 184 min.
